Experiments:
[1] = Toxicity in mouse assessed as increase in conditioned place aversion at 1 to 4 mg/kg, sc; details: in vivo
[2] = Toxicity in OX1R knock out mouse assessed as increase in conditioned place aversion at 1 to 4 mg/kg, sc; details: in vivo

SMILES: CN(C(=O)Cc1ccc(Cl)c(Cl)c1)C1CCCCC1N1CCCC1 (configuration not stated)
- Activity [1]: Toxic
- Activity [2]: Toxic

— ChEMBL document CHEMBL4725319, “Discovery of attenuation effect of orexin 1 receptor to aversion of nalfurafine: Synthesis and evaluation of D-nor-nalfurafine derivatives and analyses of the three active conformations of nalfurafine” (Bioorg Med Chem Lett, 2020)
